The species named for the test is Rattus norvegicus. Briefly: Selectivity ratio of Ki for dopamine D1-like receptor in Sprague-Dawley rat caudate putamen to Ki for dopamine D3 receptor in Sprague-Dawley rat ventral striatum. It is filed as tissue-based.
Regarding `CCCN(CC[C@]1(O)C[C@@H](NC(=O)c2ccc3ccccc3c2)C1)[C@H]1C[C@@H]1c1ccc(Cl)cc1`, the Ratio Ki was 45.
To `CCCN(CC[C@]1(O)C[C@@H](NC(=O)c2ccc3ccccc3c2)C1)[C@@H]1C[C@H]1c1ccc(Cl)cc1` belongs 9560.
For `CCCN(CC[C@]1(O)C[C@@H](NC(=O)c2ccc3ccccc3c2)C1)C1CC1c1ccc(Cl)cc1` (mixture of isomers), the Ratio Ki was found to be 479.

The record behind these values is ChEMBL document CHEMBL3259695 (J Med Chem, 2014).
